Literature values, collected in patent US20210244743A1 (priority 2020, published 2021).

System: basal and insulin-activated 2-deoxyglucose uptake in adipocytes
Settings: read-out: IC50, inhibition of basal and insulin-activated 2-deoxyglucose uptake; cited from earlier work

For `Nc1ccc(C(=O)Nc2cccc(-c3nc(N4CCOCC4)c4oc5ncccc5c4n3)c2)cn1` [YM-201636, 6-amino-N-(3-(4-morpholinopyrido[3′,2′:4,5]furo[3,2-d]pyrimidin-2-yl)phenyl)nicotinamide], the IC50 is given as 54 nM.
